The values below come from patent publication US6911443B2 (Bayer Aktiengesellschaft, priority 2000, dated 2005).

This test deals with human Syk (GST-Syk) (Homo sapiens, UniProt P43405). Description: Syk tyrosine kinase inhibitory assay. The format is biochemical. The conditions noted are these: read-out: Activity grade (IC50 class); in vitro; compounds as yielded by solid phase synthesis, purity about 40 to 90%.

The IC50 is the point on the concentration scale where inhibition reaches its midpoint. In the case of `COc1ccc(-c2cc3nccn3c(NCCN3CCOCC3)n2)cc1OC`, the half-inhibitory concentration (IC50) lay within 500 to 2000 nM.
